pIC50: −log10 of the molar value.
Experiments:
[1] = tested on: NCI-H2122 cells; assay: IC50 of FAK inhibitor used to set the ¼IC50 concentration in the NCI-H2122 proliferation assay; details: single agent; stated in legends of FIG. 6 / FIG. 7 (NCI-H2122 cells); cell line of the IC50 not explicitly stated
Method: • FIG. 1 depicts the effect of different concentrations of KRAS G12C inhibitor in combination with AMP945 on the proliferation of NCI-H2122 cells. Three different drug concentrations were selected for KRAS G12C inhibitor: 10 µM, 2 µM, and 0.4 µM. A fixed concentration of ¼IC50 was selected for AMP945. • FIG. 2 depicts the effect of different concentrations of KRAS G12C inhibitor in combination with Defactinib on the proliferation of NCI-H2122 cells. Three different drug concentrations were selected for KRAS G12C inhibitor: 10 µM, 2 µM, and 0.4 µM. A fixed concentration of ¼IC50 was selected for Defactinib. • FIG. 3 depicts the effect of different concentrations of KRAS G12C inhibitor in combination with AMP945 on the proliferation of NCI-H358 cells. Three different drug concentrations were selected for KRAS G12C inhibitor: 10 µM, 0.016 µM, and 0.0032 µM. A fixed concentration of ¼IC50 was selected for AMP945. • FIG. 4 depicts the effect of different concentrations of KRAS G12C inhibitor in combination with Defactinib on the proliferation of NCI-H358 cells. Three different drug concentrations were selected for KRAS G12C inhibitor: 10 µM, 0.016 µM, and 0.0032 µM. […]

[2] = tested on: CT26 cells; assay: Cell proliferation IC50 previously detected on CT26 cells; details: single agent
Method: The IC50s of AMP945 and Defactinib previously detected on CT26 cells were 6.2 µM and 6.9 µM, respectively. Therefore, the ¼IC50 for AMP945 in this experiment was 1.55 µM, and the ¼IC50 for Defactinib was 1.72 µM. Table 2: Grouping scheme for NCI-H358 cell proliferation inhibition assay

| pIC50 [1] | pIC50 [2] | Compound |
| --- | --- | --- |
| 5.46 | – | Cc1cc(Nc2ncc(Cl)c(Nc3ccccc3S(=O)(=O)C(C)C)n2)c(OC(C)C)cc1C1=CCN(C2CCOCC2)CC1 |
| 5.15 | – | COc1cc(N2CCC(N3CCN(C)CC3)CC2)ccc1Nc1nc2c(c(Nc3ccccc3S(=O)(=O)NC(C)C)n1)CCN2 |
| – | 5.21 | COc1cc(C2CCN(C)CC2)ccc1Nc1ncc(C(F)(F)F)c(CCc2ccccc2CC(N)=O)n1 |

— EP4847025A1, “JOINT USE OF FAK INHIBITOR AND KRAS G12C INHIBITOR” (dated 2026)
